Source: PubChem BioAssay
The list is not random: actives were taken first. Their share in the collection is about 1.2%.
Yeast UUG start-1: yeast start codon fidelity modulation. S. cerevisiae UUG-firefly luciferase reporter, luminescence/redox ratio. activity score, % at 18.7 µM. 0.13% of 350,000 active;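 active means replicate mean at a twofold rise or more, about +100% in these data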;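 further: firefly luciferase made from a UUG start codon reports start codon fidelity; reporter light over untreated wells divided by growth signal over untreated wells; some hits fall short of that in this replicate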
Rce1 inh: inhibitors of yeast Ras-converting enzyme. Q03530. yeast membranes, quenched prenylated peptide cleavage fluorescence. calls only. hit rate 0.27% among 290,000;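 active means fall in fluorescence gain of 50% or more versus controls, with final raw signal at or below 3038400; inconclusive means same 50% fall but final raw signal above 3038400; inactive means fall in fluorescence gain under 50%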;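 further: plate controls were neutral control wells for no effect and wells lacking membranes for full effect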
Tb MetRS inh: blocks T. brucei methionyl-tRNA synthetase activity. inhibition, % at 11.9 µM. hit rate 0.4% among 360,000. AID 624268. purified T. brucei MetRS, ATP depletion, Kinase-Glo luminescence;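 active means inhibition above a per-plate cutoff of the control wells' mean inhibition plus 3 SD, cut at about 5.5% in these data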;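 further: 0% = DMSO wells median and 100% = median of wells with control inhibitor compound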
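Dosing: 11.9 µM single point; system: parasite MetRS enzyme; technique: luminescence of leftover ATP; times: 15 min enzyme-compound preincubation, 2 h reaction, 10 min detection, 25 °C; replicates: each compound tested once; read-out basis: percent inhibition relative to median high and low control wells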
Pemphigus Ab inh: human desmoglein-3 autoantibody binding inhibition; DSG3-coupled beads, scFv-anti-DSG3-GFP binding, flow cytometry; stronger effect = lower value; binding (percent of control), % at 10 µM; hit rate 0.48% among 310,000; AID 588358;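 active means binding more than 3 SD below its plate's average and above zero; inconclusive means below that plate limit but binding exactly zero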;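 further: hits lower antibody fragment binding to DSG3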
Arr AP2 block: human beta-arrestin and AP2 interaction inhibition | AID 504490 | FITC-arrestin peptide / GST-AP2 beads, flow cytometry; AP2 beta2 appendage carries R879A mutation | inhibition, % at 10 µM | hit rate 0.31% among 340,000;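 active means inhibition above a set limit, near 3 SD of compounds lacking own fluorescence, cut at about 54% in these data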;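 further: plate controls were DMSO wells for no effect and 5 µM unlabelled arrestin peptide for full effect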
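Measured by: flow cytometry, FL1 (488/535 nm); Material: AP2 appendage R879A on GSH beads; Evaluation: percent response; Timing: pre-incubation 12 min, peptide binding 1 h, room temperature; Also added: 50 nM FITC-arrestin peptide; Medium: PBS with 0.05% Tween 20 and 0.1% BSA.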
Yeast UUG start-2: yeast start codon fidelity modulation | shares compounds with Yeast UUG start-1 | S. cerevisiae UUG-start firefly luciferase, luminescence, 4 h; 100% means double the DMSO signal | activation, % at 38 µM | 540 tested, under 10 active | AID 652061;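 active means signal increase whose fitted curve reaches an absolute level of 40 at a concentration under 10 µM; inactive means activity opposite to the expected increase, or the rest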
TbMetRS confirm: Trypanosoma brucei MetRS inhibition confirmed; shares compounds with Tb MetRS inh; T. brucei MetRS enzyme, luminescence (ATP depletion); inhibition, % at 11.9 µM; hit rate 93% among 1,400; AID 624412; in the data active means inhibition above about 7%
Jurkat tox: Jurkat T cell cytotoxicity for MetRS hits; AID 624413; hit rate 12% among 1,400; inhibition, % at 8.3 µM; Jurkat cells viability, ATP luminescence; shares compounds with Tb MetRS inh; in the data active means inhibition above about 15%;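 further: 0% = vehicle and 100% = reference inhibitor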
Tb MetRS inh FP: orthogonal test for Trypanosoma brucei MetRS inhibitors; hit rate 44% among 1,400; purified T. brucei MetRS, fluorescence polarization; shares compounds with Tb MetRS inh; inhibition, % at 11.9 µM; AID 651607; in the data active means inhibition above about 17%;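 further: 0% = vehicle wells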
* = called active by the depositor; i = inactive; ? = inconclusive; / = not tested or not shown.

SMILES	Yeast UUG start-1	Rce1 inh	Tb MetRS inh	Pemphigus Ab inh	Arr AP2 block	Yeast UUG start-2	others
COC(=O)c1ccc(Cc2ccc(C(=O)OC)o2)o1	-11.0	i	-0.2	100.7	-9.1	/
COC(=O)c1ccc(COC(=O)c2ccc(CO)cc2)o1	185.2*	i	-0.3	97.0	0.9	-0.5
COc1ccc(CCNC(=O)CNC(=O)c2nn(-c3ccc(OC)c(OC)c3)c(=O)c3ccccc23)cc1OC	-5.0	i	-0.2	87.8	7.2	/
COc1ccc(NC(=O)Cc2nn(C)c(=O)c3ccccc23)cc1	/	/	/	/	/	i
COc1ccc(NC(=O)COc2ccc(-c3nn(C)c(=O)c4ccccc34)cc2)cc1	-0.3	i	-0.5	95.0	-28.4	/
COc1ccc(CCNC(=O)Cc2nn(C)c(=O)c3ccccc23)cc1OC	6.1	i	1.1	/	12.8	-7.6
Cn1nc(CC(=O)Nc2ncc(Br)s2)c2ccccc2c1=O	-20.1	i	-1.6	/	22.4	/
Cn1nc(CC(=O)Nc2ccc3c(c2)CCC3)c2ccccc2c1=O	-9.7	i	-3.0	90.7	5.7	-3.5
Cn1nc(CC(=O)Nc2ccc(OC(=O)c3ccccc3)cc2)c2ccccc2c1=O	/	/	/	/	/	i
C[C@@H]1CN([C@@H](C)CO)C(=O)c2cc(-c3ccc(F)cc3)cnc2O[C@H]1CN(C)C(=O)NC1CCCC1	10.6	/	/	/	/	/
CC(C)CC#Cc1ccc2c(c1)O[C@H](CN(C)C(=O)Cc1ccccn1)[C@@H](C)CN([C@@H](C)CO)S2(=O)=O	0.1	/	/	/	/	/
Cc1cc(NC(=O)COC(=O)COc2ccc(C(=O)c3ccccc3)cc2)no1	183.6*	i	-0.9	104.0	-1.3	6.0
COc1ccc(NC(=O)Nc2ccc3c(c2)C(=O)N([C@@H](C)CO)C[C@H](C)[C@H](CN(C)Cc2ccncc2)O3)cc1	-6.7	/	/	/	/	/
COc1ccc(OC)c(C(C(=O)NCc2ccco2)N(C(=O)Cn2nnc3ccccc32)C2CC2)c1 (stereo not given)	/	i	-0.6	100.7	-1.9	/
COc1ccc(OC)c(C(C(=O)NCc2ccco2)N(C(=O)Cn2nnc3ccccc32)C(C)C)c1 (stereo not given)	196.3*	i	-1.3	104.8	31.3	17.5
CCC(=O)N1C[C@@H]2[C@H](c3ccccc31)[C@@H](CO)N2C(=O)Nc1ccccc1	27.1	/	/	/	/	/
O=C1CCC(=O)N1OCCCOc1ccc2c(c1)CCC2	active	i	-0.7	/	1.5	-0.8
COc1ccc(NC(=O)N(C)C[C@H]2Oc3ccc(NC(=O)CCC(F)(F)F)cc3C(=O)N([C@@H](C)CO)C[C@@H]2C)cc1	8.6	/	/	/	/	/
COc1ccc(N/C(N)=N/c2nc(CSc3nnc(C)s3)cc(=O)[nH]2)cc1	171.7*	i	1.1	95.8	-17.0	-2.3
Cc1ccc(N/C(N)=N/c2nc(CSc3nnc(C)s3)cc(=O)[nH]2)c(C)c1	/	/	-0.9	99.2	-1.0	/
Cc1ccc(S(=O)(=O)Nc2ccc3c(c2)C(=O)N([C@H](C)CO)C[C@@H](C)[C@H](CN(C)C(=O)NC2CCCCC2)OCCCC[C@@H](C)O3)cc1	-1.5	/	/	/	/	/
CCCC#Cc1ccc2c(c1)[C@H]1[C@H](CCN1S(=O)(=O)c1ccc(F)cc1)[C@H](CO)N2C	-10.0	/	/	/	/	/
Cc1cnn(Cc2ccccc2)c1N	604.9*	i	-1.7	99.3	5.0	-6.5
CC(C)CC#Cc1ccc2c(c1)O[C@H](CN(C)CC1CCOCC1)[C@H](C)CN([C@H](C)CO)S2(=O)=O	-15.1	/	/	/	/	/
COC(=O)Nc1ccc(S(=O)(=O)N2CCC(C)CC2)cc1	3.7	i	-0.7	93.8	4.8	/
SMILES	Yeast UUG start-1	Rce1 inh	Tb MetRS inh	Pemphigus Ab inh	Arr AP2 block	Yeast UUG start-2	others
COC(=O)Nc1ccc(S(=O)(=O)N2CCC(Cc3ccccc3)CC2)cc1	461.7*	i	-0.1	?	28.4	-1.8
COc1ccccc1CC(=O)OC(C)C(=O)Nc1ccc(S(=O)(=O)N2CCCCC2)cc1 (stereo not given)	-1.7	/	-0.5	94.3	-19.2	-3.2
COc1ccccc1NC(=O)N(C)C[C@@H]1Oc2cc(Br)ccc2S(=O)(=O)N([C@@H](C)CO)C[C@H]1C	109.4*	/	/	/	/	i
COc1ccc(-c2ccc3c(c2)O[C@H](CN(C)C(=O)c2ccccc2F)[C@H](C)CN([C@@H](C)CO)S3(=O)=O)cc1	27.3	/	/	/	/	/
Cc1ccccc1-c1ccc2c(c1)O[C@H](CN(C)C(=O)c1ccccn1)[C@H](C)CN([C@H](C)CO)S2(=O)=O	139.4*	/	/	/	/	i
COc1ccc(NC(=O)N(C)C[C@@H]2Oc3cc(-c4ccncc4)ccc3S(=O)(=O)N([C@H](C)CO)C[C@@H]2C)cc1	172.2*	/	/	/	/	i
Cc1ccccc1-c1ccc2c(c1)O[C@H](CN(C)C(=O)c1ccccn1)[C@@H](C)CN([C@@H](C)CO)S2(=O)=O	-0.1	/	/	/	/	/
C[C@H](CO)N1C[C@H](C)[C@@H](CN(C)C(=O)Nc2ccccc2F)Oc2cc(Br)ccc2S1(=O)=O	4.6	/	0.7	105.5	/	/
COc1ccc(-c2ccc3c(c2)O[C@H](CN(C)C(=O)c2ccccc2F)[C@H](C)CN([C@H](C)CO)S3(=O)=O)cc1	25.0*	/	/	/	/	i
COc1ccc(NC(=O)N(C)C[C@@H]2Oc3cc(-c4ccncc4)ccc3S(=O)(=O)N([C@@H](C)CO)C[C@@H]2C)cc1	-5.8	/	/	/	/	/
CCOC(=O)c1sc(NC(=O)Nc2ccccc2)cc1C	/	i	11.0*	104.1	-0.6	/	TbMetRS confirm=28.1*;Jurkat tox=14.7;Tb MetRS inh FP=35.7*
Nc1ncc(Br)cc1S(=O)(=O)NCCC(=O)Nc1cccc(Cl)c1	/	i	10.5*	104.5	-5.6	/	TbMetRS confirm=17.2*;Jurkat tox=0.2;Tb MetRS inh FP=8.6
Cc1ccc(NC(=O)CCNS(=O)(=O)c2cc(Br)cnc2N)cc1Cl	-1.1	i	44.0*	127.8	15.6	/	TbMetRS confirm=58.4*;Jurkat tox=7.1;Tb MetRS inh FP=21.5*
Cc1ccc(NC(=O)CCNS(=O)(=O)c2cc(Br)cnc2N)c(Cl)c1	/	i	/	/	/	/
Cc1cc(NC(=O)CCNS(=O)(=O)c2cc(Br)cnc2N)ccc1Br	-9.4	i	30.9*	128.1	0.2	/	TbMetRS confirm=47.4*;Jurkat tox=5.8;Tb MetRS inh FP=29.3*
O=C(C[C@H]1C[C@@H]2c3cc(NC(=O)C4CCOCC4)ccc3O[C@@H]2[C@H](CO)O1)NCc1cccc(F)c1	-1.7	/	/	/	/	/
Cc1noc(C)c1NC(=O)Nc1ccc2c(c1)C(=O)N([C@@H](C)CO)C[C@H](C)[C@@H](CN(C)CC1CCCCC1)OCCCC[C@H](C)O2	22.3	/	/	/	/	/
O=C(c1ccc(F)cc1)N1CC[C@@H]2[C@H](CO)Nc3ccc(C#Cc4ccccc4F)cc3[C@@H]21	-18.0	/	/	/	/	/

Part of the list above in order of count of non-hydrogen atoms, smallest number first.
SMILES	Yeast UUG start-1	Rce1 inh	Tb MetRS inh	Pemphigus Ab inh	Arr AP2 block	Yeast UUG start-2	others
Cc1cnn(Cc2ccccc2)c1N	604.9*	i	-1.7	99.3	5.0	-6.5
COC(=O)c1ccc(Cc2ccc(C(=O)OC)o2)o1	-11.0	i	-0.2	100.7	-9.1	/
CC(C)CC#Cc1ccc2c(c1)O[C@H](CN(C)C(=O)Cc1ccccn1)[C@@H](C)CN([C@@H](C)CO)S2(=O)=O	0.1	/	/	/	/	/

Entries shown so far that have an NH in an aromatic ring (2):
SMILES	Yeast UUG start-1	Rce1 inh	Tb MetRS inh	Pemphigus Ab inh	Arr AP2 block	Yeast UUG start-2	others
COc1ccc(N/C(N)=N/c2nc(CSc3nnc(C)s3)cc(=O)[nH]2)cc1	171.7*	i	1.1	95.8	-17.0	-2.3
Cc1ccc(N/C(N)=N/c2nc(CSc3nnc(C)s3)cc(=O)[nH]2)c(C)c1	/	/	-0.9	99.2	-1.0	/
